Test results from patent US5994563A, “Arylmethylphosphonic acid derivatives useful in treating bone wasting diseases” (Ortho Pharmaceutical Corporation, priority 1999, dated 1999).

Chains of the proteins cited; added tags and fusions are not shown. Residues count along the entry.
UniProt P08575, 26-1306 limits assumed: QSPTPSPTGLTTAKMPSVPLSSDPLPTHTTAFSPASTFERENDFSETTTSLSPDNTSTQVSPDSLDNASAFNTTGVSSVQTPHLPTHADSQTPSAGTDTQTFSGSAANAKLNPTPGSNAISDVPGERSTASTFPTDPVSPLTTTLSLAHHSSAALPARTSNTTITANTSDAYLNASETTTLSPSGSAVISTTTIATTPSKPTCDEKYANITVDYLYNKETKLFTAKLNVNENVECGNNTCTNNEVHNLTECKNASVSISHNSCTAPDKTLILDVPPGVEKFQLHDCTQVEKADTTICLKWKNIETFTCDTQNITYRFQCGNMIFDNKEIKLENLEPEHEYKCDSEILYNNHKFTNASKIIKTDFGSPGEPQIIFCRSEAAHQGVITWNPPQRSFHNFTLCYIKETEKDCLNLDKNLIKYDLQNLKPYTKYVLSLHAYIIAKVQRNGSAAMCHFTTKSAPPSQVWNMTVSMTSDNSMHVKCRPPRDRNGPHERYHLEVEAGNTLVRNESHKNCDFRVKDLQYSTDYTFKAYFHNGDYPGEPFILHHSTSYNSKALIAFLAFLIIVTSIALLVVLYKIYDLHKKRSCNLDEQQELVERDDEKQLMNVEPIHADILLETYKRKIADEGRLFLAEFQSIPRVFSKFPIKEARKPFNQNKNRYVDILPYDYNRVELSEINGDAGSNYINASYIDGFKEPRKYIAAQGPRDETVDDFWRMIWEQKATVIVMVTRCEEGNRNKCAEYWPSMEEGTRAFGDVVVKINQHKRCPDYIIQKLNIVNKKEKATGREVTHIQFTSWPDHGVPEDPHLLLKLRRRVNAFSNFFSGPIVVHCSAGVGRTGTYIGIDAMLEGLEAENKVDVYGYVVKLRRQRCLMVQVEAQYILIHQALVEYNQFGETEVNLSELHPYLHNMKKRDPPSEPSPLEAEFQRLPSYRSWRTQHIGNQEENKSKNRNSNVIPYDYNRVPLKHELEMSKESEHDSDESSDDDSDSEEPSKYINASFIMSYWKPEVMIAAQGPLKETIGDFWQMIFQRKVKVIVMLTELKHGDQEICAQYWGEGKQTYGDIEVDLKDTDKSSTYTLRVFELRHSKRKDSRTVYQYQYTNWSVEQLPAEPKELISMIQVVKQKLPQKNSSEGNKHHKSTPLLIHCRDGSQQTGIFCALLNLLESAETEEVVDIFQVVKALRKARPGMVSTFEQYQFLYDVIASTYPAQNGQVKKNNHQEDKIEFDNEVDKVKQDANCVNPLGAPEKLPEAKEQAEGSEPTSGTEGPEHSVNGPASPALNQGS

Assays:
[1] = target: CD45 (Homo sapiens, UniProt P08575); experiment: Enzyme Assay (CD45); conditions: read-out: IC50 (CD45); enzyme from Jurkat cell (JEG-6) membranes, pH 6.0, 90 minutes at 37° C.
[2] = system: human osteoblastic (TE85) tyrosinephosphate phosphatase; experiment: Tyrosylphosphate Phosphatase Enzyme Inhibition Assay (TE85); type: biochemical; conditions: read-out: TF85 IC50; enzyme from TE85 cell extract, 32P peptide substrate 0.1 uM, 15 minutes at 37° C.

[N-]=[N+]=Nc1ccc([N+](=O)[O-])cc1C(O)P(=O)(O)O (centres unmarked) was tested. Which IC50 [1] did it give?
The IC50 was 7.5 µM.

What about the IC50 [2] of the same molecule?
Its IC50 is 3 µM.
